# Source: PubChem BioAssay
# DT40 TDP1 no CPT: qHTS for Inhibitors of human tyrosyl-DNA phosphodiesterase 1 (TDP1): qHTS in cells in absence of CPT | DT40 Tdp1-/- hTDP1 cells, no CPT, ATP luminescence, 48 h | Potency, µM (top dose mostly 46.2 µM), inactives show top-dose activity change, negative = growth inhibition, usual class: inhibitors | hit rate 15% among 420,000; note: potency is the fitted concentration of half-maximal effect; % is set by controls: 0 for no effect and ±100 for the full control effect; nearly all actives have a fitted effect of over 55% in size
#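 Growth kinetics read by CellTiter-Glo luminescence after ≥48 hr at 37 °C. Cells: DT40 Tdp1-/- stably carrying human TDP1, 400 per well, compound exposure in the absence of CPT (DMSO vehicle).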
# miR-21 reporter: raises the signal of a miR-21 reporter | HeLa miR-21 FLuc reporter, luciferase, 48 h | Potency, µM (doses to about 38.3 µM), for the others: at the highest dose reporter change, positive = more light | 340,000 tested, under 10 active | AID 2288; active = well fitted rising curve with a large enough effect; inconclusive = small, poorly fitted or top-dose-only effect; inactive = no such curve, though single readings can be large or run the other way;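 also: % of control where 0% means no effect; miR-21 action dims this reporter so a rising signal means less miR-21 action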
#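 HeLa miR-21-FLuc reporter line, endogenous miR-21; 2000 cells/well in DMEM/10% FBS; compound titration up to ~40uM final, 48 h, 37 degree Celsius; luciferase detection reagent, 15 min lysis, CCD luminescence.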
# uPA generation: cell surface uPA generation inhibition; AID 540303; Potency, µM (top dose mostly 38.3 µM), without a hit: at the top dose activity change, negative = inhibition, hits mostly inhibitors; cell surface uPA generation assay, qHTS; hit rate 0.31% among 330,000; active = well fitted inhibition curve with a large enough effect; inconclusive = small, poorly fitted or top-dose-only effect; inactive = no such curve, though single readings can be large or run the other way; tested in mouse RAW 264.7 cells; note: potency is the fitted concentration of half-maximal effect; % is set by controls: 0 for no effect and ±100 for the full control effect; nearly all actives have a fitted effect of over 55% in size
# TDP1 cell CPT: DT40-hTDP1 cell growth loss with CPT; hit rate 12% among 420,000; Potency, µM (highest dose often 46.2 µM), for inactives: at the top dose activity change, negative = growth inhibition, most hits filed as inhibitors; chicken DT40 Tdp1-/-;hTDP1 cells + 20 nM CPT, ATP luminescence, 48 h; AID 686979; note: potency is the fitted concentration of half-maximal effect; % is set by controls: 0 for no effect and ±100 for the full control effect; nearly all actives have a fitted effect of over 55% in size
#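 Cell growth measured by CellTiter-Glo luminescence after a minimum 48 h, 37 C compound exposure with 20 nM CPT in Tdp1-knockout DT40 cells stably expressing hTDP1, seeded 400/well; qHTS titration format.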
# TDP1 block: inhibitors of human tyrosyl-DNA phosphodiesterase TDP1; Q9NUW8; recombinant TDP1, AlphaScreen DNA substrate cleavage; Potency, µM (series often up to 130 µM), for inactives: top-dose activity change, negative = inhibition, most hits filed as inhibitors; hit rate 0.28% among 350,000; note: potency is the fitted concentration of half-maximal effect; % is set by controls: 0 for no effect and ±100 for the full control effect; nearly all actives have a fitted effect of over 40% in size
#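 E. coli-derived human Tdp1, 1 nM final. Cpd preinc 15 min RT; substrate 15 nM final, 5 min RT; AS bead mix 10 ug/ml final, 10 min RT. Signal loss = tyrosine-FITC cleavage. No-enzyme wells = max signal.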
# Numbers without * were called inactive; ? = inconclusive; / = no result given; [ ] = another dose, or the depositor's remark. Most compounds without a hit are left out; they make up all but 16% or so of the library. Unless noted, calls come from the whole dose curve; as a rule, active = well fitted curve in the direction sought with a large enough effect; inconclusive = small, poorly fitted or top-dose-only effect, or another doubt; inactive = no such curve, though single readings can be large; an effect the other way counts as inactive or inconclusive.
1) Cc1ccc[n+](CC(=O)Nc2ccc(Cl)c([N+](=O)[O-])c2)c1
2) CC1CC(N(C(=O)c2ccccc2Cl)c2ccccc2)c2ccccc2N1 (stereo not given)
3) O=C(NCC(=O)N1CCN(C(c2ccccc2)c2ccccc2)CC1)c1ccc(Br)o1
4) O=C(O)CCCC(=O)N1CCN(C(c2ccccc2)c2ccccc2)CC1
5) O=C(NCC(=O)N1CCN(C(c2ccccc2)c2ccccc2)CC1)c1ccccc1Br
6) Cc1cc(C)cc(C(=O)NCC(=O)N2CCN(C(c3ccccc3)c3ccccc3)CC2)c1
7) CC1CCN(C(=O)CSc2nc3ncccc3[nH]2)CC1
8) CN(C)c1ccc(CNCCC2CCOC(C)(C)C2)cc1 (stereo not given)
9) Cc1nc2ccc(NC(=O)c3cccs3)cc2c(=O)n1Cc1ccc(Cl)cc1
10) CCCC(=O)Nc1ccc2nc(C)n(Cc3ccccc3Cl)c(=O)c2c1
Compound,1,2,3,4,5,6,7,8,9,10
DT40 TDP1 no CPT,0%,5.8µM*,?,-24%,21µM*,18µM*,-11%,/,?,-14%
miR-21 reporter,6%,-2%,-1%,-4%,/,17%,-32%,1%,27%,-2%
uPA generation,2%,-6%,-5%,-2%,/,1%,8%,/,-15%,-4%
TDP1 cell CPT,8%,7.3µM*,?,-21%,?,?,0%,/,18µM*,-14%
TDP1 block,3%,9%,3%[56.1 µM],3%,/,/,0%,3%,0%,/

11) CCCC(=O)C1C(=O)CC(C)(C)C(c2cc(C)no2)C1=O (stereo not given)
12) CN(C)S(=O)(=O)c1ccc(Cl)c(NC(=O)COC(=O)/C=C/c2ccc3ccccc3n2)c1
13) C=CCn1c(C(C)C)nc2ccccc21
14) Cc1cc(C(=O)Cn2c(CO)nc3ccccc32)c(C)n1C
15) C=CCn1c(C)cc(C(=O)Cn2c(C(C)O)nc3ccccc32)c1C (stereo not given)
16) CC(C)(C)C(=O)NCCc1nc2ccccc2n1CC(=O)c1ccccc1
17) Cc1oc(C(C)(C)C)cc1C(=O)NC(Cc1ccccc1)C(=O)O (stereo not given)
18) COc1ccc(/C=N/NC(=O)c2cccc(OC(F)(F)C(F)F)c2)cc1O
19) COc1cc2c(NC3CCN(C(C)C)CC3)nc(N3CCCN(C)CC3)nc2cc1OCCCN(C)C
20) COc1cc2c(NC3CCN(C)CC3)nc(N3CCCN(C)CC3)nc2cc1OCCOCCN1CCCC1
Compound,11,12,13,14,15,16,17,18,19,20
DT40 TDP1 no CPT,-26%,-1%,-14%,16µM*,9.2µM*,?,-4%,?,6.3µM*,1%
miR-21 reporter,0%,/,-2%,-16%,4%,-13%,-1%,-7%,/,/
uPA generation,2%,12%,3%,-1%,-12%,1%,-11%,-6%,/,/
TDP1 cell CPT,-5%,3%,-30%,?,21µM*,-23%,-4%,?,3.2µM*,-20%
TDP1 block,4%,1%,5%,0%,-3%,-4%,2%,-3%,/,/

# Individual results from above.
# In DT40 TDP1 no CPT, Cc1oc(C(C)(C)C)cc1C(=O)NC(Cc1ccccc1)C(=O)O (stereo not given) reads -4%
# In TDP1 block, CC(C)(C)C(=O)NCCc1nc2ccccc2n1CC(=O)c1ccccc1 reads -4%
# In TDP1 block, COc1ccc(/C=N/NC(=O)c2cccc(OC(F)(F)C(F)F)c2)cc1O reads -3%

# (further entries)
21) COc1cc2c(NC3CCN(C)CC3)nc(N3CCCN(C)CC3)nc2cc1OCCCCC(N)=O
22) COc1cc2c(NC3CCN(C)CC3)nc(N3CCCN(C)CC3)nc2cc1OCCN(C)C
23) COc1cc2c(NC3CCN(C)CC3)nc(N3CCCN(C)CC3)nc2cc1OCCCCCN(C)C
24) CC(C)(C)c1ccc(OCC2CO2)cc1 (stereo not given)
25) CC1CC2C3CCC4=CC(=O)C=C[C@]4(C)[C@@]3(Cl)C(O)C[C@]2(C)C1(OC(=O)c1ccco1)C(=O)CCl (stereo not given in full)
26) C=CC[N+](C)(C)CC(=O)OCc1ccccc1
27) CCSc1nnc(NC(=O)c2cc(-c3ccc(C)c(C)c3O)n[nH]2)s1
28) Cc1ccc(CCNC(=O)C2CCN(S(=O)(=O)c3ccc4c(c3)NC(=O)C(C)S4)CC2)cc1 (stereo not given)
Compound,21,22,23,24,25,26,27,28
DT40 TDP1 no CPT,-12%,11µM*,14µM*,/,-22%,20%,?,18µM*
miR-21 reporter,/,/,/,/,/,-2%,-6%,25%
uPA generation,/,/,/,/,/,-3%,7%,-12%
TDP1 cell CPT,8%,11µM*,11µM*,/,-28%,13%,-15%,?
TDP1 block,/,/,/,9%,8%,4%,3%,0%

# Pulled one by one from the entries so far:
21) COc1cc2c(NC3CCN(C)CC3)nc(N3CCCN(C)CC3)nc2cc1OCCCCC(N)=O
27) CCSc1nnc(NC(=O)c2cc(-c3ccc(C)c(C)c3O)n[nH]2)s1
Compound,21,27
DT40 TDP1 no CPT,-12%,?
miR-21 reporter,/,-6%
uPA generation,/,7%
TDP1 cell CPT,8%,-15%
TDP1 block,/,3%
